Settings: 20 mg/kg (1 : 0), gavage, plasma; analyte deuterated dextromethorphan

Compound: [2H]C([2H])([2H])Oc1ccc2c(c1)[C@]13CCCC[C@@H]1[C@H](C2)N(C([2H])([2H])[2H])CC3 [Deuterated dextromethorphan]
- AUClast: 387 h^∗ng/ ml

Source: patent publication EP4183391A1, “PHARMACEUTICAL COMPOSITION AND USE THEREOF” (Shenzhen Salubris Pharmaceuticals Co., Ltd., priority 2020, dated 2022)
